Source: ChEMBL document CHEMBL1641510, “Mono-oxime bisquaternary acetylcholinesterase reactivators with prop-1,3-diyl linkage-Preparation, in vitro screening and molecular docking” (2011)

Sequences of proteins named here, by UniProt entry; tags and fusion partners are left off. A change or cut given only in a name is not applied to a line headed by its entry.
UniProt P22303: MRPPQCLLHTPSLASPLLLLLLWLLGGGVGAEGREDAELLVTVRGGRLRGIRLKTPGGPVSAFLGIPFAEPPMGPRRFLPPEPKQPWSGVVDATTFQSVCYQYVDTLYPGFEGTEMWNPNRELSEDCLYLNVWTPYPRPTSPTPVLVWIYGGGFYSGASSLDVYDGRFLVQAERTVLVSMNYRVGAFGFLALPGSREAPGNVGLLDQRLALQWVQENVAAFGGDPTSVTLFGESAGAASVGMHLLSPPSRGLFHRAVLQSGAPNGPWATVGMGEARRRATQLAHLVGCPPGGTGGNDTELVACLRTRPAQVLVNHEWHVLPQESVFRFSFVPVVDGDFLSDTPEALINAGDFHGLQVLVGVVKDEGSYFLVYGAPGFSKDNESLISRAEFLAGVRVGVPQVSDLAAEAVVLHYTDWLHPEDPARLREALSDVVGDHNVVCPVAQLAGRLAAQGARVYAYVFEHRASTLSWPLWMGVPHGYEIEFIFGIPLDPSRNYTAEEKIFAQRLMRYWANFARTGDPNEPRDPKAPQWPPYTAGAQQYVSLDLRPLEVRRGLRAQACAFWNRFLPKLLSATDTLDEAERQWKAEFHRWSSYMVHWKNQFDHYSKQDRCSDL

How the values were obtained:
[1] = molecular target: Acetylcholinesterase (Homo sapiens) (UniProt P22303); experiment: Reactivation of POX-mediated inactive human recombinant AChE at 100 uM after 15 mins by Ellman's method
[2] = molecular target: Acetylcholinesterase (Homo sapiens) (UniProt P22303); experiment: Reactivation of DEP-mediated inactive human recombinant AChE at 100 uM after 15 mins by Ellman's method
[3] = molecular target: Acetylcholinesterase (Homo sapiens) (UniProt P22303); experiment: Reactivation of POX-mediated inactive human recombinant AChE at 10 uM after 15 mins by Ellman's method
[4] = molecular target: Acetylcholinesterase (Homo sapiens) (UniProt P22303); experiment: Reactivation of DEP-mediated inactive human recombinant AChE at 10 uM after 15 mins by Ellman's method
[5] = molecular target: Acetylcholinesterase (Homo sapiens) (UniProt P22303); experiment: Reactivation of MePOX-mediated inactive human recombinant AChE at 10 uM after 15 mins by Ellman's method
[6] = molecular target: Acetylcholinesterase (Homo sapiens) (UniProt P22303); experiment: Reactivation of MePOX-mediated inactive human recombinant AChE at 100 uM after 15 mins by Ellman's method
[7] = molecular target: Acetylcholinesterase (Homo sapiens) (UniProt P22303); experiment: Reactivation of GA-mediated inactive human recombinant AChE at 100 uM after 15 mins by Ellman's method
[8] = molecular target: Acetylcholinesterase (Homo sapiens) (UniProt P22303); experiment: Reactivation of GA-mediated inactive human recombinant AChE at 10 uM after 15 mins by Ellman's method

SMILES	Activity [1] [%]	Activity [2] [%]	Activity [3] [%]	Activity [4] [%]	Activity [5] [%]	Activity [6] [%]	Activity [7] [%]	Activity [8] [%]
O/N=C/c1cc[n+](C[n+]2ccc(/C=N/O)cc2)cc1	16.1	2.4	1.8	0.6	14.3	14.2		
O/N=C/c1cc[n+](CCC[n+]2ccccc2)cc1	28.4	6.4	13	1.7	6	9.3	5.3	4.4
O/N=C/c1cc[n+](CCC[n+]2ccc3ccccc3c2)cc1	4.6	0.6	6.7	0.8	7.9	18.5	3	4.2
CC(C)(C)c1cc[n+](CCC[n+]2ccc(/C=N/O)cc2)cc1	16.7	1.1	0.6	0.1	4.9	6.8	3.4	5.3
O/N=C/c1cc[n+](CCC[n+]2ccccn2)cc1	26	1.2	18.8	16.8	6.6	8.8	5.3	4.5
CCOC(=O)c1cc[n+](CCC[n+]2ccc(/C=N/O)cc2)cc1	51.4	1.9	20.2	1.3	28.1	15.3	8.8	8.2
NC(=O)c1cc[n+](CCC[n+]2ccc(/C=N/O)cc2)cc1	48	5.7	20.8	2.1		55.6	15.2	7.8
Cc1cc[n+](CCC[n+]2ccc(/C=N/O)cc2)cc1	15.9	13.1	23.8	11.1	4.6	14.3	3.8	3.3
N/C(=N\O)c1cc[n+](CCC[n+]2ccc(/C=N/O)cc2)cc1	72.2	3.1	38.9	1.3	52.2	37.2	9.6	8.9
N#Cc1cc[n+](CCC[n+]2ccc(/C=N\O)cc2)cc1	15.8	12.7	23.4	7.4	4	24.2	6.2	5.9
O=C(O)c1cc[n+](CCC[n+]2ccc(/C=N/O)cc2)cc1	17	6.2	30.7	1.4	3.1	7.5	9.1	4.2
NC(=O)c1cc[n+](CCC[n+]2ccc(/C=N/O)cc2)cc1C(N)=O	9.9	0.6	29	0.3	2.6	10.3	5.4	4.4
CC(=O)c1cc[n+](CCC[n+]2ccc(/C=N/O)cc2)cc1	55.2	1.8	13.3	0.1	31.2	10.7	12.1	12.9
O/N=C/c1cc[n+](CCC[n+]2ccc(-c3ccccc3)cc2)cc1	23.2	3.9	21	2.3	16.6	31.6	10.1	11.2
OCc1cc[n+](CCC[n+]2ccc(/C=N/O)cc2)cc1	13.7	1.8	7.6	0.7	3.5	11.3	1.8	3.6
O/N=C/c1cc[n+](CCC[n+]2cccc3ccccc32)cc1	5.1	0.8	7.5	1.2	9.5	8.3	0.6	2.6
